The record followed here is PubChem BioAssay AID743280 (The Scripps Research Institute Molecular Screening Center, 2014).

Chains of the proteins cited; added tags and fusions are not shown. Lines headed by an entry give the natural chain unless they say otherwise; changes in a name come on top.
UniProt Q9NZ20: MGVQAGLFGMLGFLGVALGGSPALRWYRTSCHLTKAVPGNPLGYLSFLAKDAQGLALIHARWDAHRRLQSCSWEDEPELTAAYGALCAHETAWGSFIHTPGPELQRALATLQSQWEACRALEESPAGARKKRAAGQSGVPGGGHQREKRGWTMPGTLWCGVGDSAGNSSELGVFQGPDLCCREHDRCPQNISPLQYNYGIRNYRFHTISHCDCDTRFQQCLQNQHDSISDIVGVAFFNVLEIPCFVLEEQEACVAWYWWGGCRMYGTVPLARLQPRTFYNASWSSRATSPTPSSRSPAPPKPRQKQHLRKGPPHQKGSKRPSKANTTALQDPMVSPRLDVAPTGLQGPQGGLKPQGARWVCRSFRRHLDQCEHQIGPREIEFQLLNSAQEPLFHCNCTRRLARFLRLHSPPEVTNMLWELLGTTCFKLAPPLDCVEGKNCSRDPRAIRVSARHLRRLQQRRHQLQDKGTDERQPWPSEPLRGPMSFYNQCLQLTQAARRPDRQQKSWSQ

Only a part is listed here, and it is no random draw. Calls of active or inactive are those of the source.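 Rule for the calls: active = mean inhibition across triplicates above the hit cutoff set in the earlier primary screen (cut at about 19% in these data); inactive = the rest.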

In the assay the target is Group 3 secretory phospholipase A2 (Homo sapiens) (UniProt Q9NZ20). The assay can be described thus: HGIII-sPLA2 enzyme inhibition – biochemical, QFRET, triplicate, confirmation (AID 743280).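 Note: 0% = enzyme with DMSO and 100% = DMSO wells lacking enzyme.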 As to conditions: recombinant hGIII-sPLA2, BODIPY PC-A2 QFRET fluorescence; at 12.2 µM; active compounds read high.
The inhibition is how much of the control response was suppressed. As for `O=[N+]([O-])c1cc(Oc2ccc([N+](=O)[O-])cc2C(F)(F)F)cc([N+](=O)[O-])c1`, the inhibition was active: 24.1%.
